SMILES strings stand for the structures. Only a part is listed here, and it is no random draw. Active and inactive are the calls of the source.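 Rule for the calls: active = inhibition above the mean of all tested compounds plus 3 SD, set per screening campaign (cut at about 17% in these data); inactive = the rest.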

This assay concerns cathepsin L1 (Fasciola hepatica). Kind of assay: Fasciola hepatica cathepsin L1 inhibitors, primary screen, counter-screen for PFM18AAP inhibitor project, biochemical, QFRET, fluorogenic peptide substrate (AID 1906).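 Note: 0% = plate median of test compound wells and 100% = 1 µM Z-Phe-Ala-diazomethylketone.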 The note with it: recombinant F. hepatica cathepsin L1, Z-Leu-Arg-MCA fluorescence; at 5.96 µM; stronger effect = higher value.
With `N#CCCN(C(=O)COC(=O)C(O)(c1ccccc1)c1ccccc1)c1ccc(F)cc1`, the inhibition was inactive: 2.9%. For `CN(C(=O)Cc1ccccc1)[C@@H]1CC[C@]2(CCCO2)C[C@H]1N1CCCC1` the value was inactive: -4.91%. With `CCOP1(=S)c2c(C)nn(CCC#N)c2N=C(c2ccc(F)cc2)N1C` (configuration not stated), the inhibition was inactive: -2.14%. Regarding `CS(=O)(=O)c1cc([N+](=O)[O-])c2no[n+]([O-])c2c1`, the inhibition was inactive: -1.31%. For the compound `CCOP1(=S)c2c(C)nn(CCC#N)c2N=C(c2ccccc2F)N1C` (configuration not stated), the inhibition is inactive: -1.66%. Take `O=P(Nc1nccs1)(c1ccccc1)c1nc2ccccc2s1` (configuration not stated): the inhibition is inactive: 0.98%.

For `O=P(Nc1nccs1)(Oc1ccccc1)Oc1ccccc1`, the inhibition is inactive: -2.89%. On to `O=C(O)COc1ccc([As](=O)(O)O)cc1[N+](=O)[O-]`, for which the inhibition was inactive: -0.55%. With `Nc1ccccc1[As](=O)(O)c1ccccc1` the figure was inactive: 0.56%; with `CCCOP(=S)(Nc1nc(N)cc(=O)[nH]1)OCCC`, inactive: -3.43%. With `Cc1ccc(NCCc2c([N+](=O)[O-])cc([N+](=O)[O-])cc2[N+](=O)[O-])cc1` the figure was inactive: 6.92%. For `Nc1cccc2c([As](=O)(O)O)cccc12` the value was active: 61.8%; for `COc1cc(C2NCCC3(OCCO3)C2(C)C)cc(OC)c1OC` (configuration not stated), inactive: -2.46%. For the compound `CCOP(=O)(Nc1cccc2ccccc12)OCC`, the inhibition is inactive: -2.96%. As to `COc1cc(C(=O)NCC2(N3CCOCC3)CCCCC2)cc(Cl)c1OC(C)C`, the inhibition was inactive: 1.78%. `O=[As](O)(O)c1cccnc1`: the inhibition is inactive: 7.06%.

As to `CS(=O)(=O)c1ccc(Cl)c(NC(=O)COC(=O)C(O)(c2ccccc2)c2ccccc2)c1`, the inhibition is inactive: -63.4%. Turning to `O=C(OC1CN2CCC1CC2)c1ccc(Cl)cc1` (configuration not stated), the inhibition is inactive: 0.59%. Take `O=[As](O)(c1cccc(O)c1)c1cccc(O)c1`: the inhibition was inactive: -2.23%. Take `Cc1cccc(OCC(=O)OC2CN3CCC2CC3)c1` (configuration not stated): the inhibition is inactive: -2.58%. Consider `COc1ccccc1CNC(=O)COC(=O)C(O)(c1ccccc1)c1ccccc1`, for which the inhibition is inactive: -4.96%.

As for `O=[As](O)(c1ccccc1Br)c1ccccc1Br`, the inhibition is inactive: 0.67%. With `CC1(CBr)Cn2c(nc3ccccc3c2=O)S1` (configuration not stated) the figure was inactive: -0.48%. In the case of `CN(C(=O)Cc1ccc(Cl)c(Cl)c1)[C@@H]1CCCC[C@H]1N1CCCC1`, the inhibition is inactive: 1.82%. For `CC(C)/C=N\N=C(\N)N[N+](=O)[O-]` the value was inactive: 1.61%.

As to `CN(CCCl)Cc1cc(Cl)c(NC2=NCCN2)c(Cl)c1`, the inhibition was inactive: -3.9%. With `CCOP(=O)(Nc1ccc(C)cn1)OCC`, the inhibition was inactive: -1.61%. Regarding `CCC1=CC2Cc3nc4ccc(Cl)cc4c(N)c3C(C1)C2` (configuration not stated), the inhibition was inactive: 0.99%. For `O=P1(Nc2ccccn2)COc2ccccc2OC1`, the inhibition is inactive: -3.67%.

Take `CCOP(=O)(NC(=NC(C)c1ccccc1)NC(C)c1ccccc1)OCC` (configuration not stated): the inhibition is inactive: -1.77%. As for `Clc1n[nH]nc1-c1nn[nH][15n]1`, the inhibition was inactive: 7.06%. As to `CC(C)(C)C(=O)NC(Sc1ncccn1)C(Cl)(Cl)Cl` (configuration not stated), the inhibition was inactive: -0.1%. For the compound `O=P1(Nc2ncccn2)COc2ccccc2OC1`, the inhibition was inactive: -2.83%.

On to `O=P1(Nc2ccc(Br)cn2)COc2ccccc2OC1`, for which the inhibition is inactive: -5.8%. For `Cc1ccc(OCC(=O)OC2CN3CCC2CC3)cc1` (configuration not stated) the value was inactive: 1.28%. With `O=[As](O)(c1cccs1)c1cccs1` the figure was inactive: 2.08%. With `Nc1cccc([As](=O)(O)c2ccccc2)c1` the figure was inactive: -1.05%; with `Cc1nn(-c2ccccc2)c2c1P(=O)(N1CCOCC1)N(C)C(c1ccccc1)=N2` (configuration not stated), inactive: -0.74%; with `Cc1ccc(C(=O)OC2CN3CCC2CC3)cc1` (configuration not stated), inactive: -4.89%. On to `CC1CCC(C(C)C)C(OP(=O)(Nc2ccccn2)c2ccccc2)C1` (configuration not stated), for which the inhibition is inactive: 2.2%.

On to `O=C(/C=C/c1ccccc1)OC1CN2CCC1CC2` (configuration not stated), for which the inhibition was inactive: -4.17%. With `CN(C)C1(CNC(=O)c2ccc(S(C)(=O)=O)cc2)CCCCC1` the figure was inactive: -2.17%.
